# The entries are a selection whose mix differs from that of the whole data set. Active and inactive are the calls of the source. Rule as the data show it: active = percent response above about 24% (passing the limit was not always enough); inactive = the rest.
# Test system: MEKK2 (MAP3K2) mutant PB1 domain binding to MEK5, human
# Experiment: MEK5 binding signal on mutant MEKK2 PB1, primary screen, biochemical, multiplex bead flow cytometry, Alexa488-MEK5 (AID 1530)
# Conditions: at 10 µM, active compounds read high
row,SMILES,percent response
1,O=C(O)COc1ccc([As](=O)(O)O)cc1[N+](=O)[O-],inactive: 8%
2,Nc1ccccc1[As](=O)(O)c1ccccc1,inactive: 7%
3,CS(=O)(=O)c1cc([N+](=O)[O-])c2no[n+]([O-])c2c1,inactive: -21%
4,CCOP1(=S)c2c(C)nn(CCC#N)c2N=C(c2ccccc2F)N1C (stereo not drawn),inactive: 6%
5,O=P(Nc1nccs1)(Oc1ccccc1)Oc1ccccc1,inactive: 6%
6,O=P(Nc1nccs1)(c1ccccc1)c1nc2ccccc2s1 (stereo not drawn),inactive: 4%
7,CC(C)NC(=O)NP(=O)(Oc1ccccc1)Oc1ccccc1,inactive: 2%
8,CCN(CC)C(=S)SC(NC=O)C(Cl)(Cl)Cl (stereo not drawn),inactive: 9%
9,O=[N+]([O-])c1cc([N+](=O)[O-])c(-c2ccn[nH]2)s1,inactive: 1%
10,CC(C)c1ccc(OP(=O)(Nc2ccccn2)Oc2ccccc2F)cc1 (stereo not drawn),inactive: -1%
11,ClCCSc1nnc(-c2cccnc2)o1,inactive: 0%
12,Cc1ccc2nc3c(c(C)c2c1)CC(C(Cl)Cl)S3 (stereo not drawn),inactive: 1%
13,Cc1ccc(OP(=O)(Nc2ccc([N+](=O)[O-])cn2)Oc2ccc(C)cc2)cc1,inactive: 9%
14,O=[As](O)(c1ccc(O)cc1)c1ccccc1O,inactive: 8%
15,C[As](=O)(O)c1cccc(C(=O)O)c1,inactive: 7%
16,COc1ccc(N/C(=N/P(=O)(N2CCOCC2)N2CCOCC2)N2CCOCC2)cc1,inactive: -1%
17,COc1ccc2nc(NP(=O)(c3ccccc3)c3ccccc3)sc2c1,inactive: -1%

row,SMILES,percent response
1,COc1cc(I)ccc1[As](=O)(O)O,inactive: 0%
2,O=C(OC1CN2CCC1CC2)C12CC3CC(CC(C3)C1)C2 (stereo not drawn),inactive: 2%
3,Cc1cc(=O)[nH]c(N[N+](=O)[O-])n1,inactive: -3%
4,Cc1c2c(nc3ccccc13)SC(C(Cl)Cl)C2 (stereo not drawn),inactive: -1%
5,CCC(C)N(CC(C)C)C(=S)SC(NC(C)=O)C(Cl)(Cl)Cl (stereo not drawn),inactive: 1%
6,CCOC(=O)c1ccc(NC(=O)C(C)(CCl)SC)cc1 (stereo not drawn),inactive: -4%
7,O=C(OC1CN2CCC1CC2)c1cccc([N+](=O)[O-])c1 (stereo not drawn),inactive: 2%
8,O=C(Nc1ccncc1[N+](=O)[O-])c1ccc([N+](=O)[O-])cc1[N+](=O)[O-],inactive: 7%
9,COP1(=S)c2c(C)nn(CCC#N)c2N=C(c2ccc(F)cc2)N1C (stereo not drawn),inactive: 3%
10,O=[N+]([O-])c1ccc(Nc2ccc(Oc3ccc([N+](=O)[O-])cc3[N+](=O)[O-])cc2)c([N+](=O)[O-])c1,inactive: -1%
11,Cc1cc(SC(NC=O)C(Cl)(Cl)Cl)ncn1 (stereo not drawn),inactive: -1%
12,O=P(Nc1ccccn1)(c1cccc2ccccc12)c1cccc2ccccc12,inactive: 1%
13,CCOC(=O)Nc1cccc([As](=O)(O)O)c1,inactive: 10%
14,CCCCOc1ccc(C(=O)NCC2(N3CCCCC3)CCCCC2)cc1OC,inactive: 8%
15,Cc1cc(SC(NC(=O)c2ccccc2)C(Cl)(Cl)Cl)nc(C(C)C)n1 (stereo not drawn),inactive: 31%
16,CCOC(=O)Nc1ccc([As](=O)(O)O)c(O)c1,inactive: 4%

# Source: PubChem BioAssay AID1530 (NMMLSC, 2009)
